These are literature values, as cited in patent US20230301973A1, “TREATMENT OF DIFFUSE INTRINSIC PONTINE GLIOMA” (priority 2016, published 2023).

Protein sequences, listed by entry. Tags and fused reporters are not part of them. Lines headed by an entry give the natural chain unless they say otherwise; changes in a name come on top.
UniProt Q14680: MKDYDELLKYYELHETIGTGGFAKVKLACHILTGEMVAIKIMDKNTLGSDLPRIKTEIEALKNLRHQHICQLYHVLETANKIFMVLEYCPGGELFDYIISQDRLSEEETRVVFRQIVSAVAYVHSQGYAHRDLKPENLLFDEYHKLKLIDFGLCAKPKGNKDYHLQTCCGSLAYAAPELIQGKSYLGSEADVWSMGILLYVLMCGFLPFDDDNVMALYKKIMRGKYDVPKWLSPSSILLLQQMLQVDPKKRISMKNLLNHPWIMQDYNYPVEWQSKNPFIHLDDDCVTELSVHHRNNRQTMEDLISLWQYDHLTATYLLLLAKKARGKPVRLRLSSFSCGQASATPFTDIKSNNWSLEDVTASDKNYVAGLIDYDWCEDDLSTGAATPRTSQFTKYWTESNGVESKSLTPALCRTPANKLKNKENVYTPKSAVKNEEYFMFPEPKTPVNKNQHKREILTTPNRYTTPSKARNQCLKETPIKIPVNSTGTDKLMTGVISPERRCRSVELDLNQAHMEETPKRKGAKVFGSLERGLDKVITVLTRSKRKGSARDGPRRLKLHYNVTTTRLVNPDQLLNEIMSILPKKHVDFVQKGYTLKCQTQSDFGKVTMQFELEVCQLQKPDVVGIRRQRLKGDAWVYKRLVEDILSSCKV

As a reminder, the IC50 is the point on the concentration scale where inhibition reaches its midpoint.

One data set addresses MELK (Homo sapiens, UniProt Q14680). To be noted: cited from earlier work.
The conditions of data set [1]: clinical; result in words; cited from earlier work.

On to `CC(=O)c1cnc2ccc(-c3cc(Cl)c(O)c(Cl)c3)nc2c1NC1CCC(CN(C)C)CC1` (centres unmarked) [OTS167, 1-[6-(3,5-Dichloro-4-hydroxyphenyl)-4-({4-[(dimethylamino)methyl]cyclohexyl}amino)-1,5-naphthyridin-3-yl]ethanone], for which the IC50 at MELK was 0.41 nM.
In the case of Cetuximab, in data set [1], the MTD result is “Not reached”.
